Source: ChEMBL document CHEMBL5506043, “A β-Carboline Derivate PAD4 Inhibitor Reshapes Neutrophil Phenotype and Improves the Tumor Immune Microenvironment against Triple-Negative Breast Cancer” (J Med Chem, 2024)

Test: Clearance in male Sprague-Dawley rat at 3.5 mg/kg, iv by LC-MS/MS analysis
Format: ADME, organism-based
Conditions: in vivo

## CN(C)c1ccc2cc(C(=O)N[C@@H](CCCNC(=N)CCl)C(=O)NCc3ccccc3)ccc2c1
  CL: 571.87 L/h/kg
